The target of test [1] is T1, human MC-3R (Homo sapiens, UniProt P41968).
T1 construct: expressed in transfected cells; host or cells: CHO- or L-cells or other eukaryotic cells
The experiment in a line: Membrane binding assay, competition with 125I-NDP-alpha-MSH. The conditions noted are these: human receptor; average of at least 3 determinations. How it is done:
(§1) A. Binding Assay. The membrane binding assay was used to identify competitive inhibitors of ^125I-NDP-alpha-MSH binding to cloned human MCRs expressed in L- or CHO-cells.
(§2) Cell lines expressing melanocortin receptors were grown in T-180 flasks containing selective medium of the composition: 1 L Dulbecco's modified Eagles Medium (DMEM) with 4.5 g L-glucose, 25 mM Hepes, without sodium pyruvate, (Gibco/BRl); 100 ml 10% heat-inactivated fetal bovine serum (Sigma); 10 ml 10,000 unit/ml penicillin & 10,000 ug/ml streptomycin (Gibco/BRl); 10 ml 200 mM L-glutamine (Gibco/BRl); 1 mg/ml Geneticin (G418) (Gibco/BRl). The cells were grown at 37° C. with CO2 and humidity control until the desired cell density and cell number was obtained.
(§3) The medium was poured off and 10 mls/monolayer of enzyme-free dissociation media (Specialty Media Inc.) was added. The cells were incubated at 37° C. for 10 minutes or until cells sloughed off when flask was banged against hand.
(§4) The cells were harvested into 200 ml centrifuge tubes and spun at 1000 rpm, 4° C., for 10 min. […]
(§5) IC50's were determined in a competition binding assay with ^125I-NDP-alpha-MSH as ligand using crude membranes prepared from cell lines expressing the appropriate MC-R. Functional EC50's were determined by application of compound to intact cells followed by direct measurement of cAMP as described in the Biological Assays section above.

Sequences of proteins named here, by UniProt entry; tags and fusion partners are left off. A change or cut given only in a name is not applied to a line headed by its entry.
UniProt P41968: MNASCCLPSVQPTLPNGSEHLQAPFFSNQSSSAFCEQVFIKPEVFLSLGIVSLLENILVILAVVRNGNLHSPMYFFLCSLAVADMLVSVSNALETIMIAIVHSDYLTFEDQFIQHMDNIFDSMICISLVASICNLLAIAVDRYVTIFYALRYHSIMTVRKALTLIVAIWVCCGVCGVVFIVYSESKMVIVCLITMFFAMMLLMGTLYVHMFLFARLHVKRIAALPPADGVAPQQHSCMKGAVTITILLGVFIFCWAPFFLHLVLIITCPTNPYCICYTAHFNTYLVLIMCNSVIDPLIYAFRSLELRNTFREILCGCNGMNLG
UniProt Q01726: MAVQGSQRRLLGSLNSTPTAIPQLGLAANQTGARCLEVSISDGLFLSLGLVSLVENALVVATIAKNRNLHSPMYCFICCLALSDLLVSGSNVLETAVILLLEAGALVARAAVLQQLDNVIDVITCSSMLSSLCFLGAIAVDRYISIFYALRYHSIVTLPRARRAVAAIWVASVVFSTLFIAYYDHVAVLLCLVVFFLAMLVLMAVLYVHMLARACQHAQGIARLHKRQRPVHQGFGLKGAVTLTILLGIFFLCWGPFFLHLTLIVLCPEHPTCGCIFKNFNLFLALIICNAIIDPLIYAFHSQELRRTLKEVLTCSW

Test [2] addresses T2, human MC-1R (Homo sapiens, UniProt Q01726).
T2 construct: expressed in transfected cells; host or cells: CHO- or L-cells or other eukaryotic cells
Described as above. The conditions noted are these: human receptor; average of at least 3 determinations. The method, then: as §1, §2, §3, §4, §5

The target in test [3] is T1, human MC-3R. The experiment in a line: Functional cell based cAMP assay. The note with it: human receptor, average of at least 3 determinations.
Text: (§6) B. Functional assay. Functional cell based assays were developed to discriminate melanocortin receptor agonists from antagonists.
(§7) Cells (for example, CHO- or L-cells or other eukaryotic cells) expressing a human melanocortin receptor (see e.g. Yang-YK; Ollmann-MM; Wilson-BD; Dickinson-C; Yamada-T; Barsh-GS; Gantz-I; Mol-Endocrinol. 1997 Mar; 11(3): 274-80) were dissociated from tissue culture flasks by rinsing with Ca and Mg free phosphate buffered saline (14190-136, Life Technologies, Gaithersburg, Md.) and detached following 5 minutes incubation at 37° C. with enzyme free dissociation buffer (S-014-B, Specialty Media, Lavellette, N.J.). Cells were collected by centrifugation and resuspended in Earle's Balanced Salt Solution (14015-069, Life Technologies, Gaithersburg, Md.) with additions of 10 mM HEPES pH 7.5, 5 mM MgCl2, 1 mM glutamine and 1 mg/ml bovine serum albumin. Cells were counted and diluted to 1 to 5×10^6/ml. […]
(§8) cAMP was measured in an aliquot of the cell lysate with the Amersham (Arlington Heights, Ill.) cAMP detection assay (RPA556). […]
as §5
(Changes in cAMP serve as a functional read-out for many G protein-coupled receptors.)

Test [4] concerns the target T2, human MC-1R. Kind of test: Functional cell based cAMP assay. The note with it: human receptor, average of at least 3 determinations.
Text: as §6, §7, §8, §5

With `O=C(N[C@H](Cc1ccc(Cl)cc1)C(=O)N1CCC(Cn2cncn2)(C2CCCCC2)CC1)[C@H]1Cc2ccccc2CN1` [Example 2], the IC50 (as a rule, the concentration that gives 50% inhibition) at human MC-3R [1] came out at 0.54 µM; on human MC-1R [2], 2.1 µM. Also, the EC50 (as a rule, the concentration needed to bring the measured effect to its halfway point) at human MC-3R [3] worked out at 1.2 µM; at human MC-1R [4] it was 1.3 µM.
